# Assay results as given in ChEMBL document CHEMBL1134439, “Radioiodinated styrylbenzenes and thioflavins as probes for amyloid aggregates” (J Med Chem, 2001).
# Sequences of proteins named here, by UniProt entry; tags and fusion partners are left off.
# UniProt P05067, whole entry: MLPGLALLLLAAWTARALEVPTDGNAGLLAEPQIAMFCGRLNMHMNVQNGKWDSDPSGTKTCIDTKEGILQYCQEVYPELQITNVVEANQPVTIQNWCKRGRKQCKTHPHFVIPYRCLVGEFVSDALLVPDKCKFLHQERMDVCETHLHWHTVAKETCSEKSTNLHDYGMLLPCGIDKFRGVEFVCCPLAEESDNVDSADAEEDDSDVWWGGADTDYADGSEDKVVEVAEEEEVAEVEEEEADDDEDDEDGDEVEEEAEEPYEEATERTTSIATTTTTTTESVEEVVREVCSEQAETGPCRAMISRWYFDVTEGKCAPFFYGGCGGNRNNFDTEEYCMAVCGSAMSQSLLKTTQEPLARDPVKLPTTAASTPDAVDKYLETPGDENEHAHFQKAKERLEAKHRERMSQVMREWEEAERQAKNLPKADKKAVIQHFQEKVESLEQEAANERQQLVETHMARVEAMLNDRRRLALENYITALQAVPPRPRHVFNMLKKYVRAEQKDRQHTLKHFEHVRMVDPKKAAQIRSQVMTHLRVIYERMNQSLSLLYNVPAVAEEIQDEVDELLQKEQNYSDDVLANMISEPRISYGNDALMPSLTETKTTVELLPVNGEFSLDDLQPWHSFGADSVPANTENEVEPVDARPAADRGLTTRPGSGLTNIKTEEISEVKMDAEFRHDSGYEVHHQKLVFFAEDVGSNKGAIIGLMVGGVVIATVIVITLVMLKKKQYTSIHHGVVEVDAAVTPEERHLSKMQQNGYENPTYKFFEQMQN
# “And” between values parts separate entries of the source, which are not always exact repeats. Equal entries are not always repeated.
# How the values were obtained:
# [1] = target: T1, Amyloid-beta precursor protein (Homo sapiens, UniProt P05067); test: Inhibition constant for amyloid beta compared to [125I]TZDM
# Method in brief: (§1)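 Aβ(1-40) or Aβ(1-42) aggregated at 0.5 or 0.25 mg/mL respectively in pH 7.4 buffer (10 mM sodium phosphate, 1 mM EDTA), 37 °C, 36-42 h with shaking. Competition against ¹²⁵I radioligand with fibrils 10-50 nM (final), 10% EtOH, 1 mL. Incubation 3 h room temperature. Bound ligand collected by GF/B filtration, γ-counted. Ki by nonlinear regression. Mean ± SEM, three experiments in duplicate.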
# [2] = target: T1, Amyloid-beta precursor protein; test: Inhibition constant for aggregates of amyloid beta compared to [125I]IMSB; method in brief: as §1
smiles,measurement,setting,value
Cc1ccc2c(c1)sc(-c1ccc(N(C)C)cc1)[n+]2C,Ki,[1],116 nM and 294 nM
same,Ki,[2],> 9000 nM
